Experiment [1] has as its system colorectal cancer liver metastases needle biopsy cuboids. Description: Viability of needle biopsy cuboids from colorectal cancer liver metastases. Particulars: 500 nM, 48 hours. The source says: FIG. 16A to FIG. 16D show drug screening in needle biopsy samples. FIG. 16A is a schematic illustrating the process of cutting 18-gauge core needle biopsy samples into 3D cuboids using a tissue chopper and placing them in U-bottom 96-well plates with viability dye. […] FIG. 16C and FIG. 16D show the response to standard-of-care drugs measured in 3D cuboids generated from liver tumor (FIG. 16C) or cholangiocarcinoma sample (FIG. 16D), with each bar representing the mean of at least 2-3 wells. Each well contained at least three cuboids. Error bars represent SEM.
Responses to 25-40 drugs using tissues obtained from a single needle biopsy were successfully assessed in less than five days. This approach involves mechanically cutting the needle biopsy samples into ~400 μm-wide cuboidal-shaped micro-dissected tissues, resulting in 300-1000 cuboids per sample. These cuboids are placed in hydrogel-coated, 96-well U-bottom plates with Realtime-glo viability detection reagent, with each well containing at least three cuboids (see FIG. 16A).
Responses to standard-of-care chemotherapy drugs in needle biopsies from colorectal cancer liver metastases were also evaluated. Needle biopsy cuboids were treated with chemotherapy drugs as single agents (500 nM) or in combination (250 nM for each drug). Staurosporine (STS) was used as a positive control. […]

Experiment [2] concerns patient-derived primary FLC cells. Description: Dose-response in patient-derived primary FLC cells. Particulars: PLK1 inhibitors. The source says:
(§1) Bars represent the mean of two independent slices, and error bars denote SEM. ** p<0.01. FIG. 14B is a dose-response plot showing patient-derived primary FLC cells are sensitive to indicated PLK1 inhibitors. Onvansertib and CYC140 are clinical-grade PLK 1 inhibitors. […] Bars represent the mean of two independent slices, and error bars denote SEM. ** p<0.01, * p<0.05.
(§2) PLK1 inhibitors: Polo Like Kinases (PLK) are key regulators of centrosome maturation (Lee and Rhee, J. Cell Biol. 195:1093-1101, 2011), mitosis, and cell division (Lee et al., Development & Reproduction 18:65, 2014). Using cryopreserved FLC tumor slices and non-tumor liver tissues, the efficacies of two 2nd generation PLK1 inhibitors were measured. […] In contrast, the viability of slices prepared from the non-tumor liver from the same patient was not affected by the PLK1 inhibitor treatment. […] Whether pharmacological inhibition of PLK1 could inhibit FLC cell growth was also investigated. […] Given the encouraging results obtained from our initial experiments, we intend to further investigate the effectiveness of PLK1 inhibitors in a larger sample size of FLC cases. […]

The test system of another experiment is FLC tumor slices. Description: Viability of FLC tumor slices treated with inhibitors. Conditions: PLK1 inhibitors, 500 nM, cryopreserved slices, vs DMSO.
Description: as §1, §2

In a further experiment the test system is non-tumor liver slices. Description: Viability of non-tumor liver slices treated with inhibitors. Conditions: PLK1 inhibitors, 500 nM, same patient.
Description: as §1, §2

In experiment [3] the test system is fibrolamellar carcinoma (FLC). Particulars: previous clinical trial(s); cited from earlier work.
Experiment [4] deals with Wnt signaling in RKO cells. Description: Validation of Wnt pathway effects in independent RKO cells. Particulars: data not shown. The protocol:
To identify chemical modulators of Wnt signaling, HEK293 STF cells were treated with Wnt3a in the presence of 254 principal set drugs at a concentration of 2.5 μM (see FIG. 11B). A negative control of DMSO was used. TCF activity was measured 24 hours after drug treatment using luciferase assay, and the resulting changes in TCF activity in response to the 254 principal drug set were used as the output. Meanwhile, the responses to the 254 principal drug set in 475 cancer cell lines were used as input to generate CNN models, and hyperparameter tuning with ten-fold cross-validation was used to evaluate the accuracy of the predictions (see FIG. 11C). The optimized hyperparameters were then used to predict responses to the full 3897 Diversity drug set (see FIG. 11D). […] GSK3β is known to phosphorylate and target β-catenin for proteasomal degradation (see Steinhart and Angers, supra). Therefore, GSK3β inhibition can lead to increased B-catenin levels and enhanced TCF-mediated transcription. […]

In experiment [5] the test system is Wnt-driven TCF activity (canonical Wnt pathway). Description: TCF activity (TOPFLASH luciferase) in HEK293 STF cells treated with Wnt3a. Conditions: 2.5 μM, 24 hours, luciferase assay, FIG. 11E. The protocol: FIG. 11A to FIG. 11E show identification and validation of inhibitors and activators of the Wnt pathway using a principal drug set to predict cellular responses to a full diversity set. FIG. 11A is a schematic showing the Wnt-dependent activation of β-catenin-TCF. FIG. 11B is an illustration showing the overall experimental design using HEK293 super topflash cells (STF). Cells were treated with the principal drug set in the presence of Wnt3a, and TCF activity was measured 24 hours later. The resulting data was used for CNN modeling. FIG. 11C is a plot showing the accuracy of the CNN model in predicting response to the training dataset (254 drugs).
Wnt proteins are growth factors that play a crucial role in various biological processes, such as proliferation, migration, and differentiation (see Nusse, Cold Spring Harbor Perspectives in Biology 4:a011163, 2012; Steinhart and Angers, Development 145:dev146589, 2018). Abnormal activation of Wnt signaling has been linked to human developmental disorders and several types of cancer, including colon, skin, brain, and prostate cancer (see Zhan et al., Oncogene 36:1461-1473, 2017). […] The TOPFLASH (TCF binding site) luciferase reporters (see Biechele and Moon, Wnt Signaling: Pathway Methods and Mammalian Models, 99-110, 2008) in HEK293 cells can be used to quantitatively monitor-catenin-dependent transcription (see FIG. 11A). […]

SMILES strings stand for the structures.

Consider `N[C@@H]1CCCC[C@H]1N.[Pt+2]`, for which, in experiment [1], the “cuboid viability, single agent” value is given as “no change in cuboid viability”. In the case of `CN1CCN(c2ccc(OC(F)(F)F)c(Nc3ncc4c(n3)-c3c(c(C(N)=O)nn3CCO)CC4)c2)CC1`, the “growth inhibition / sensitivity of primary FLC cells, in words” value in experiment [2] (dose-response) was “outperforming the response of BI-2536”. The EC50 in experiment [2] (growth of patient-derived primary FLC cells) was determined as 25 nM. In addition, in the experiment with FLC tumor slices, the “viability of FLC tumor slices” value was “significantly decrease the viability”. Moreover, the “viability of non-tumor liver slices” value with non-tumor liver slices is “not affected”.

With `Cc1cc(Nc2cc(N3CCN(C)CC3)nc(/C=C/c3ccccc3)n2)n[nH]1`, the clinical outcome in experiment [3] is on record as “failed in the clinic”.

As for `COc1cc2nc(N3CCN(C(=O)c4ccco4)CC3)nc(N)c2cc1OC`, the “effect on Wnt signaling in RKO cells (in words)” value in experiment [4] is listed as “validated”. In addition, the “activated TCF activity” value in experiment [5] is on record as over 1500 fold.

Turning to `CCc1c2c(nc3ccc(O)cc13)-c1cc3c(c(=O)n1C2)COC(=O)[C@]3(O)CC`, the “cuboid viability, single agent” value in experiment [1] is reported as “significant decrease in cuboid viability”. In the case of `CNC(=C[N+](=O)[O-])NCCSCc1ccc(CN(C)C)o1`, the “effect on Wnt signaling in RKO cells (in words)” value in experiment [4] is given as “validated”. In addition, in experiment [5], the “activated TCF activity” value is over 1500 fold.

The EC50 is the concentration needed to bring the measured effect to its halfway point. Low values mean a more potent agent, high ones a less potent agent.

These data come from patent US20260388712A1, “OPTIMIZED DRUG SCREENING USING ARTIFICIAL INTELLIGENCE” (published 2026).
